Test results reported in ChEMBL document CHEMBL3826971 (Bioorg Med Chem Lett, 2016).

Biological target: Cholinesterases; ACHE & BCHE (Homo sapiens) (UniProt P06276+P22303)
Assay: Selectivity ratio, ratio of IC50 for human plasma BChE to IC50 for human AChE

Going from `Cc1c(OC(=O)N(C)C)c2c(c[n+]1C)COCOC2` to `Cc1c(OC(=O)N(C)C)c2c(c[n+]1C)COC(C)OC2` (stereo not given), the Ratio IC50 rises from 3.1 to 6.9.

Compared with `Cc1c(OC(=O)N(C)C)c2c(c[n+]1C)COC(C)(C)OC2`, `Cc1c(OC(=O)N(C)C)c2c(c[n+]1C)COC(C(C)C)OC2` (stereo not given) is higher in Ratio IC50: 2.4 for the first, 3.5 for the second.

`CCCC1OCc2c[n+](C)c(C)c(OC(=O)N(C)C)c2CO1` (stereo not given) and `CCC1OCc2c[n+](C)c(C)c(OC(=O)N(C)C)c2CO1` (stereo not given) are the same in Ratio IC50: 2.9 for the first, 2.9 for the second.

Compared with `CCCCCCCCCC(C)C1OCc2c[n+](C)c(C)c(OC(=O)N(C)C)c2CO1` (stereo not given), `CCCCCCCCC1OCc2c[n+](C)c(C)c(OC(=O)N(C)C)c2CO1` (stereo not given) is higher in Ratio IC50: 1.3 for the first, 1.5 for the second.

Going from `CCCCCCCC1OCc2c[n+](C)c(C)c(OC(=O)N(C)C)c2CO1` (stereo not given) to `Cc1c(OC(=O)N(C)C)c2c(c[n+]1C)COC(C(C)(C)C)OC2` (stereo not given), the Ratio IC50 falls from 3.9 to 2.8.
